These results are taken from US20120094923A1, “METHODS AND MATERIALS FOR ASSESSING PROSTATE CANCER RECURRENCE AND REDUCING MESOTRYPSIN ACTIVITY” (priority 2010, published 2012).

SMILES strings stand for the structures. Read-outs that look alike come from different tables or passages of the source.

The target in the test is T1, mesotrypsin (Homo sapiens, UniProt P35030).
T1 construct: made in house; host or cells: E. coli
T1 sequence (P35030 81-304 limits assumed): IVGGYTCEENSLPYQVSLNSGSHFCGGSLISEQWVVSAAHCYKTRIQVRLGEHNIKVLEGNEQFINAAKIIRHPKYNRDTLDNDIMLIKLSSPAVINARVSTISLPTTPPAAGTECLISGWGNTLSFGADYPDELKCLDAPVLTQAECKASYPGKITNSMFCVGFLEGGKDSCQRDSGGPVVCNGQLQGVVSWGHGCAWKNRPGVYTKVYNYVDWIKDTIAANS
In words: Competitive inhibition of mesotrypsin (cleavage of chromogenic substrate Z-GPR-pNA). It counts as biochemical.

`CC[C@H](C)[C@H](NC(=O)[C@H](C)NC(=O)[C@H](CO)NC(=O)CNC(=O)[C@@H]1CSSC[C@H](NC(=O)[C@@H](NC(=O)[C@@H](N)CCC(=O)O)C(C)C)C(=O)N[C@@H](CO)C(=O)N[C@@H](CCC(=O)O)C(=O)N[C@@H](CCC(N)=O)C(=O)N[C@@H](C)C(=O)N[C@@H](CCC(=O)O)C(=O)N[C@@H]([C@@H](C)O)C(=O)NCC(=O)N2CCC[C@H]2C(=O)N[C@H]2CSSC[C@@H]3NC(=O)CNC(=O)CNC(=O)[C@H](Cc4ccc(O)cc4)NC(=O)[C@H](Cc4ccccc4)NC(=O)[C@H](Cc4ccccc4)NC(=O)[C@@H]4CCCN4C(=O)[C@H](C)NC(=O)[C@H](CSSC[C@H](NC(=O)[C@H](Cc4ccc(O)cc4)NC(=O)[C@H](CCC(=O)O)NC(=O)[C@H](CCC(=O)O)NC(=O)[C@H]([C@@H](C)O)NC(=O)[C@H](CC(=O)O)NC(=O)CNC(=O)[C@H](CC(N)=O)NC(=O)[C@H](CC(N)=O)NC(=O)[C@H](CCCNC(=N)N)NC(=O)[C@H](CC(N)=O)NC(=O)CNC(=O)CNC3=O)C(=O)N[C@@H](CCSC)C(=O)N[C@@H](C)C(=O)N[C@@H](C(C)C)C(=O)N1)NC(=O)[C@H](CCCCN)NC(=O)CNC(=O)[C@H](CCC(=O)O)NC(=O)[C@H]([C@@H](C)O)NC(=O)[C@H](C(C)C)NC(=O)[C@H](CC(=O)O)NC(=O)[C@H](Cc1ccccc1)NC(=O)[C@H](Cc1ccc(O)cc1)NC(=O)[C@H](Cc1c[nH]c3ccccc13)NC(=O)[C@H](CCCNC(=N)N)NC(=O)[C@H](CO)NC(=O)[C@H]([C@@H](C)CC)NC(=O)[C@H](CCCNC(=N)N)NC(=O)[C@H](C)NC(=O)[C@H](CCCCN)NC2=O)C(=O)O` [APPI-R15K/M17R] registered an inhibitory constant (Ki) of 1.53e-06 M. The compound `CC[C@H](C)[C@H](NC(=O)[C@H](C)NC(=O)[C@H](CO)NC(=O)CNC(=O)[C@@H]1CSSC[C@H](NC(=O)[C@@H](NC(=O)[C@@H](N)CCC(=O)O)C(C)C)C(=O)N[C@@H](CO)C(=O)N[C@@H](CCC(=O)O)C(=O)N[C@@H](CCC(N)=O)C(=O)N[C@@H](C)C(=O)N[C@@H](CCC(=O)O)C(=O)N[C@@H]([C@@H](C)O)C(=O)NCC(=O)N2CCC[C@H]2C(=O)N[C@H]2CSSC[C@@H]3NC(=O)CNC(=O)CNC(=O)[C@H](Cc4ccc(O)cc4)NC(=O)[C@H](Cc4ccccc4)NC(=O)[C@H](Cc4ccccc4)NC(=O)[C@@H]4CCCN4C(=O)[C@H](C)NC(=O)[C@H](CSSC[C@H](NC(=O)[C@H](Cc4ccc(O)cc4)NC(=O)[C@H](CCC(=O)O)NC(=O)[C@H](CCC(=O)O)NC(=O)[C@H]([C@@H](C)O)NC(=O)[C@H](CC(=O)O)NC(=O)CNC(=O)[C@H](CC(N)=O)NC(=O)[C@H](CC(N)=O)NC(=O)[C@H](CCCNC(=N)N)NC(=O)[C@H](CC(N)=O)NC(=O)CNC(=O)CNC3=O)C(=O)N[C@@H](CCSC)C(=O)N[C@@H](C)C(=O)N[C@@H](C(C)C)C(=O)N1)NC(=O)[C@H](CCCCN)NC(=O)CNC(=O)[C@H](CCC(=O)O)NC(=O)[C@H]([C@@H](C)O)NC(=O)[C@H](C(C)C)NC(=O)[C@H](CC(=O)O)NC(=O)[C@H](Cc1ccccc1)NC(=O)[C@H](Cc1ccc(O)cc1)NC(=O)[C@H](Cc1c[nH]c3ccccc13)NC(=O)[C@H](CCCNC(=N)N)NC(=O)[C@H](CO)NC(=O)[C@H]([C@@H](C)CC)NC(=O)[C@H](Cc1ccccc1)NC(=O)[C@H](C)NC(=O)[C@H](CCCNC(=N)N)NC2=O)C(=O)O` [APPI-M17F] yielded a Ki (Ki ± SD (M)) of 1.26e-07 M. Turning to `CC[C@H](C)[C@H](NC(=O)[C@H](C)NC(=O)[C@H](CO)NC(=O)CNC(=O)[C@@H]1CSSC[C@H](NC(=O)[C@@H](NC(=O)[C@@H](N)CCC(=O)O)C(C)C)C(=O)N[C@@H](CO)C(=O)N[C@@H](CCC(=O)O)C(=O)N[C@@H](CCC(N)=O)C(=O)N[C@@H](C)C(=O)N[C@@H](CCC(=O)O)C(=O)N[C@@H]([C@@H](C)O)C(=O)NCC(=O)N2CCC[C@H]2C(=O)N[C@H]2CSSC[C@@H]3NC(=O)CNC(=O)CNC(=O)[C@H](Cc4ccc(O)cc4)NC(=O)[C@H](Cc4ccccc4)NC(=O)[C@H](Cc4ccccc4)NC(=O)[C@@H]4CCCN4C(=O)[C@H](C)NC(=O)[C@H](CSSC[C@H](NC(=O)[C@H](Cc4ccc(O)cc4)NC(=O)[C@H](CCC(=O)O)NC(=O)[C@H](CCC(=O)O)NC(=O)[C@H]([C@@H](C)O)NC(=O)[C@H](CC(=O)O)NC(=O)CNC(=O)[C@H](CC(N)=O)NC(=O)[C@H](CC(N)=O)NC(=O)[C@H](CCCNC(=N)N)NC(=O)[C@H](CC(N)=O)NC(=O)CNC(=O)CNC3=O)C(=O)N[C@@H](CCSC)C(=O)N[C@@H](C)C(=O)N[C@@H](C(C)C)C(=O)N1)NC(=O)[C@H](CCCCN)NC(=O)CNC(=O)[C@H](CCC(=O)O)NC(=O)[C@H]([C@@H](C)O)NC(=O)[C@H](C(C)C)NC(=O)[C@H](CC(=O)O)NC(=O)[C@H](Cc1ccccc1)NC(=O)[C@H](Cc1ccc(O)cc1)NC(=O)[C@H](Cc1c[nH]c3ccccc13)NC(=O)[C@H](CCCNC(=N)N)NC(=O)[C@H](CO)NC(=O)[C@H]([C@@H](C)CC)NC(=O)[C@H](CCC(=O)O)NC(=O)[C@H](C)NC(=O)[C@H](CCCNC(=N)N)NC2=O)C(=O)O` [APPI-M17E], affinity (Ki (M)) was put at a Ki of 3.08e-07 M. This counts as sub-micromolar. Still for that read-out and setting: as for `CC[C@H](C)[C@H](NC(=O)[C@H](C)NC(=O)[C@H](CO)NC(=O)CNC(=O)[C@@H]1CSSC[C@H](NC(=O)[C@@H](NC(=O)[C@@H](N)CCC(=O)O)C(C)C)C(=O)N[C@@H](CO)C(=O)N[C@@H](CCC(=O)O)C(=O)N[C@@H](CCC(N)=O)C(=O)N[C@@H](C)C(=O)N[C@@H](CCC(=O)O)C(=O)N[C@@H]([C@@H](C)O)C(=O)NCC(=O)N2CCC[C@H]2C(=O)N[C@H]2CSSC[C@@H]3NC(=O)CNC(=O)CNC(=O)[C@H](Cc4ccc(O)cc4)NC(=O)[C@H](Cc4ccccc4)NC(=O)[C@H](Cc4ccccc4)NC(=O)[C@@H]4CCCN4C(=O)[C@H](C)NC(=O)[C@H](CSSC[C@H](NC(=O)[C@H](Cc4ccc(O)cc4)NC(=O)[C@H](CCC(=O)O)NC(=O)[C@H](CCC(=O)O)NC(=O)[C@H]([C@@H](C)O)NC(=O)[C@H](CC(=O)O)NC(=O)CNC(=O)[C@H](CC(N)=O)NC(=O)[C@H](CC(N)=O)NC(=O)[C@H](CCCNC(=N)N)NC(=O)[C@H](CC(N)=O)NC(=O)CNC(=O)CNC3=O)C(=O)N[C@@H](CCSC)C(=O)N[C@@H](C)C(=O)N[C@@H](C(C)C)C(=O)N1)NC(=O)[C@H](CCCCN)NC(=O)CNC(=O)[C@H](CCC(=O)O)NC(=O)[C@H]([C@@H](C)O)NC(=O)[C@H](C(C)C)NC(=O)[C@H](CC(=O)O)NC(=O)[C@H](Cc1ccccc1)NC(=O)[C@H](Cc1ccc(O)cc1)NC(=O)[C@H](Cc1c[nH]c3ccccc13)NC(=O)[C@H](CCCNC(=N)N)NC(=O)[C@H](CO)NC(=O)[C@H]([C@@H](C)CC)NC(=O)[C@H](CCCNC(=N)N)NC(=O)[C@H](C)NC(=O)[C@H](CCCNC(=N)N)NC2=O)C(=O)O` [APPI-M17R], the figure is 9.2e-07 M. `CC[C@H](C)[C@H](NC(=O)[C@H](C)NC(=O)[C@H](CO)NC(=O)CNC(=O)[C@@H]1CSSC[C@H](NC(=O)[C@@H](NC(=O)[C@@H](N)CCC(=O)O)C(C)C)C(=O)N[C@@H](CO)C(=O)N[C@@H](CCC(=O)O)C(=O)N[C@@H](CCC(N)=O)C(=O)N[C@@H](C)C(=O)N[C@@H](CCC(=O)O)C(=O)N[C@@H]([C@@H](C)O)C(=O)NCC(=O)N2CCC[C@H]2C(=O)N[C@H]2CSSC[C@@H]3NC(=O)CNC(=O)CNC(=O)[C@H](Cc4ccc(O)cc4)NC(=O)[C@H](Cc4ccccc4)NC(=O)[C@H](Cc4ccccc4)NC(=O)[C@@H]4CCCN4C(=O)[C@H](C)NC(=O)[C@H](CSSC[C@H](NC(=O)[C@H](Cc4ccc(O)cc4)NC(=O)[C@H](CCC(=O)O)NC(=O)[C@H](CCC(=O)O)NC(=O)[C@H]([C@@H](C)O)NC(=O)[C@H](CC(=O)O)NC(=O)CNC(=O)[C@H](CC(N)=O)NC(=O)[C@H](CC(N)=O)NC(=O)[C@H](CCCNC(=N)N)NC(=O)[C@H](CC(N)=O)NC(=O)CNC(=O)CNC3=O)C(=O)N[C@@H](CCSC)C(=O)N[C@@H](C)C(=O)N[C@@H](C(C)C)C(=O)N1)NC(=O)[C@H](CCCCN)NC(=O)CNC(=O)[C@H](CCC(=O)O)NC(=O)[C@H]([C@@H](C)O)NC(=O)[C@H](C(C)C)NC(=O)[C@H](CC(=O)O)NC(=O)[C@H](Cc1ccccc1)NC(=O)[C@H](Cc1ccc(O)cc1)NC(=O)[C@H](Cc1c[nH]c3ccccc13)NC(=O)[C@H](CCCNC(=N)N)NC(=O)[C@H](CO)NC(=O)[C@H]([C@@H](C)CC)NC(=O)[C@H](CC(=O)O)NC(=O)[C@H](C)NC(=O)[C@H](CCCNC(=N)N)NC2=O)C(=O)O` [APPI-M17D] yielded an inhibition constant (Ki) (Ki ± SD (M)) of 3.46e-07 M. Regarding `CC[C@H](C)[C@H](NC(=O)[C@H](C)NC(=O)[C@H](CO)NC(=O)CNC(=O)[C@@H]1CSSC[C@H](NC(=O)[C@@H](NC(=O)[C@@H](N)CCC(=O)O)C(C)C)C(=O)N[C@@H](CO)C(=O)N[C@@H](CCC(=O)O)C(=O)N[C@@H](CCC(N)=O)C(=O)N[C@@H](C)C(=O)N[C@@H](CCC(=O)O)C(=O)N[C@@H]([C@@H](C)O)C(=O)NCC(=O)N2CCC[C@H]2C(=O)N[C@H]2CSSC[C@@H]3NC(=O)CNC(=O)CNC(=O)[C@H](Cc4ccc(O)cc4)NC(=O)[C@H](Cc4ccccc4)NC(=O)[C@H](Cc4ccccc4)NC(=O)[C@@H]4CCCN4C(=O)[C@H](C)NC(=O)[C@H](CSSC[C@H](NC(=O)[C@H](Cc4ccc(O)cc4)NC(=O)[C@H](CCC(=O)O)NC(=O)[C@H](CCC(=O)O)NC(=O)[C@H]([C@@H](C)O)NC(=O)[C@H](CC(=O)O)NC(=O)CNC(=O)[C@H](CC(N)=O)NC(=O)[C@H](CC(N)=O)NC(=O)[C@H](CCCNC(=N)N)NC(=O)[C@H](CC(N)=O)NC(=O)CNC(=O)CNC3=O)C(=O)N[C@@H](CCSC)C(=O)N[C@@H](C)C(=O)N[C@@H](C(C)C)C(=O)N1)NC(=O)[C@H](CCCCN)NC(=O)CNC(=O)[C@H](CCC(=O)O)NC(=O)[C@H]([C@@H](C)O)NC(=O)[C@H](C(C)C)NC(=O)[C@H](CC(=O)O)NC(=O)[C@H](Cc1ccccc1)NC(=O)[C@H](Cc1ccc(O)cc1)NC(=O)[C@H](Cc1c[nH]c3ccccc13)NC(=O)[C@H](CCCNC(=N)N)NC(=O)[C@H](CO)NC(=O)[C@H]([C@@H](C)CC)NC(=O)CNC(=O)[C@H](C)NC(=O)[C@H](CCCNC(=N)N)NC2=O)C(=O)O` [APPI-M17G], the Ki by setting is: (Ki toward mesotrypsin) 4.7e-09 M; (Ki ± SD (M)) 4.71e-09 M.
